The entries are a selection whose mix differs from that of the whole data set. The source made the active and inactive calls.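 How the source made its calls: active means inhibition above the batch mean plus 3 SD, with images confirmed as a hit by eye (cut at about 37% in these data); inconclusive means inhibition above that limit but hit not confirmed in images; inactive means inhibition not above that limit.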
Assay: inhibitors of TNFa-induced VCAM1 expression, primary screen, imaging, HUVEC, TNFa stimulus, immunofluorescence (AID 802);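 further: 0% = TNF-stimulated DMSO wells and 100% = unstimulated control wells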
Conditions: HUVEC TNFa-induced VCAM-1 immunofluorescence, high-content imaging; at 2 µM; hits give high values
In the case of `CCC(C)N(CC(C)C)C(=S)SC(NC(C)=O)C(Cl)(Cl)Cl` (stereo not drawn), the inhibition is reported as inactive: 11.9%. For `O=C(COc1ccccc1)OC1CN2CCC1CC2` (stereo not drawn), the inhibition was inactive: 15.6%. With `COP1(=S)c2c(C)nn(CCC#N)c2N=C(c2ccc(F)cc2)N1C` (stereo not drawn) the inhibition was inactive: 2.9%. In the case of `CCN(CC)C(=S)SC(NC=O)C(Cl)(Cl)Cl` (stereo not drawn), the inhibition is reported as inactive: 4%. For `ClCCSc1nnc(-c2cccnc2)o1`, the inhibition was inactive: 2.2%. In the case of `O=C(OC1CN2CCC1CC2)C12CC3CC(CC(C3)C1)C2` (stereo not drawn), the inhibition is reported as inactive: -4.6%. For `Cc1cccc(OCC(=O)OC2CN3CCC2CC3)c1` (stereo not drawn), the inhibition was inactive: 3.9%. In the case of `O=[N+]([O-])c1ccc2c(c1)nnn2O`, the inhibition is reported as inactive: 3.1%. In the case of `CCOP1(=S)c2c(C)nn(CCC#N)c2N=C(c2ccc(F)cc2)N1C` (stereo not drawn), the inhibition is reported as inactive: -4.1%. With `CCOP1(=S)c2c(C)nn(CCC#N)c2N=C(c2ccccc2F)N1C` (stereo not drawn) the inhibition was inactive: 2%. In the case of `Cc1ccc(OCC(=O)OC2CN3CCC2CC3)cc1` (stereo not drawn), the inhibition is reported as inactive: 24.2%. With `O=P1(Nc2ccc(Br)cn2)COc2ccccc2OC1` the inhibition was inactive: -2.8%. For `O=P1(Nc2ncccn2)COc2ccccc2OC1`, the inhibition was inactive: 1.1%. In the case of `Cc1nn(-c2ccccc2)c2c1P(=O)(N1CCOCC1)N(C)C(c1ccccc1)=N2` (stereo not drawn), the inhibition is reported as inactive: 9.3%. With `CC1(CBr)Cn2c(nc3ccccc3c2=O)S1` (stereo not drawn) the inhibition was inactive: -13.5%. In the case of `Clc1n[nH]nc1-c1nn[nH][15n]1`, the inhibition is reported as inactive: 4.3%. For `O=P1(Nc2ccccn2)COc2ccccc2OC1`, the inhibition was inactive: 6%. With `c1nnnn1CCn1cnnn1` the inhibition was inactive: 12.7%. In the case of `O=P(Nc1nccs1)(c1ccccc1)c1ccccc1`, the inhibition is reported as active: 92.6%. With `O=C(OC1CN2CCC1CC2)c1cccc(Cl)c1` (stereo not drawn) the inhibition was inactive: -6.6%. For `COC(=O)c1cc2c(s1)N=C(c1ccccc1)N(C)P2(=O)N1CCOCC1` (stereo not drawn), the inhibition was inactive: 7.3%. For `CCC(=O)N1C2C3N(C(=O)CC)C1C1N(C(=O)CC)C(C(N1C(=O)CC)N3C(=O)CC)N2C(=O)CC`, the inhibition was inactive: -4.1%. With `CCOC(=O)NC(Sc1ccccc1)C(Cl)(Cl)Cl` (stereo not drawn) the inhibition was inactive: -1.3%. With `O=P1(Nc2nc3ccc(Cl)cc3s2)COc2ccccc2O1` (stereo not drawn) the inhibition was inactive: -6.8%. With `CC(C)CC(=O)NC(Sc1ccc(Cl)cc1)C(Cl)(Cl)Cl` (stereo not drawn) the inhibition was inactive: 5.5%. In the case of `Cc1c2non([O-])c-2c(C)[n+](=O)[n+]1[O-]`, the inhibition is reported as inactive: 15.1%. For `Oc1ccccc1CNc1ccccn1`, the inhibition was inactive: -21.3%. For `CN1CCCC(OC(=O)C(c2ccccc2)c2ccccc2)C1` (stereo not drawn), the inhibition was inactive: -15%. For `CCOP(=O)(Nc1ccccc1)OCC`, the inhibition was inactive: 8.2%. For `CC1CCN(C(=O)Oc2c(Cl)cc(Cl)c3cccnc23)CC1`, the inhibition was inactive: 7.8%. With `CC(=O)N1C2C3N(C(C)=O)C1C1N(C(C)=O)C(C(N1C(C)=O)N3C(C)=O)N2C(C)=O` the inhibition was inactive: 5.5%. With `O=[N+]([O-])c1cccc2n[nH]nc12` the inhibition was inactive: 19.4%. In the case of `CCc1nc2c(n1)c1c(non1O)c1c2no[n+]1[O-]`, the inhibition is reported as inactive: 20.5%.

— PubChem BioAssay AID802 (Columbia University Molecular Screening Center, 2007)
